Antibody variant affinities, Ab-14 light chain, assay 1

The measurements come from Engelhart et al. 2022 (doi:10.1038/s41597-022-01779-4) through the FLAb antibody collection.

Antigen: PDVDLGDISGINAS, a 14-residue peptide of the SARS-CoV-2 spike HR2 region.

Ab-14 is the parent antibody, in scFv form: VH, then a (GGGGS)3 linker, then VL. The heavy chain is unchanged in all variants.
VH: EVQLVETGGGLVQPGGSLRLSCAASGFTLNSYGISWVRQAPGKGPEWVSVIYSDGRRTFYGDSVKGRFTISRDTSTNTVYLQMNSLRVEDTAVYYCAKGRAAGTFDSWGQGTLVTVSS
VL: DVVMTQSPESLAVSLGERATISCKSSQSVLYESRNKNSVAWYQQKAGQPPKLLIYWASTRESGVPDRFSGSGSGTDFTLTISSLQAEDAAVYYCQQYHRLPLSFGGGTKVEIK

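Phage display of a naive human antibody library on the peptide gave the parent. In library AAYL50, one, two or three CDR residues were substituted; doubles and triples were drawn at random. The assay is AlphaSeq: two haploid yeast populations carry antibody and antigen on their surface. The frequency of each diploid, read from paired DNA barcodes, reflects how well the two displayed proteins bind. Each replicate has its own calibration line, from reference interactions of the BCL2 family. The assay was run in three technical replicates.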

Substitutions are numbered in sequence along the VL above, starting at 1 (not Kabat). Affinities are written as log10 Kd with Kd in nM; a lower number is a better binder. The mean shown is taken over the replicates in which the pair was detected. Where no diploid with the target was found in that replicate, the entry reads "nd": below detection, most likely a poor binder, though not proof of it. As a blank, each scFv also met three strains without target: over library AAYL50, 18% of these pairings were detected, typically at 4.19 and seldom below 2.99. Also given: how often the same scFv was detected with the empty control strains, with their mean in brackets.

{"changes": "L30D/Q95M/P101L", "log10 Kd (nM) by replicate": "0.39 0.66 0.52", "mean log10 Kd (nM)": "0.52", "control signals": "1/9 (3.90)"}
{"changes": "A40C/S58M/L100C", "log10 Kd (nM) by replicate": "4.40 nd 4.42", "mean log10 Kd (nM)": "4.41", "control signals": "4/9 (4.81)"}
{"changes": "R34E", "log10 Kd (nM) by replicate": "0.27 0.48 0.30", "mean log10 Kd (nM)": "0.35", "control signals": "4/9 (4.42)"}
{"changes": "S33G/K36I/S103L", "log10 Kd (nM) by replicate": "0.78 0.95 0.94", "mean log10 Kd (nM)": "0.89", "control signals": "4/9 (3.82)"}
{"changes": "E32C/N35F/R60I", "log10 Kd (nM) by replicate": "nd nd nd", "mean log10 Kd (nM)": "nd", "control signals": "0/9"}
{"changes": "S25A/K36W/R60A", "log10 Kd (nM) by replicate": "2.56 2.98 2.44", "mean log10 Kd (nM)": "2.66", "control signals": "2/9 (4.26)"}
{"changes": "Q95R/R99Y", "log10 Kd (nM) by replicate": "1.60 1.75 1.80", "mean log10 Kd (nM)": "1.72", "control signals": "0/9"}
{"changes": "T59V/R60L/L100S", "log10 Kd (nM) by replicate": "3.16 2.71 4.98", "mean log10 Kd (nM)": "3.62", "control signals": "1/9 (4.10)"}
{"changes": "T59A/Y97L", "log10 Kd (nM) by replicate": "nd nd 4.72", "mean log10 Kd (nM)": "4.72", "control signals": "3/9 (4.37)"}
{"changes": "S26D/E32T/S103L", "log10 Kd (nM) by replicate": "1.77 1.44 1.39", "mean log10 Kd (nM)": "1.53", "control signals": "0/9"}
{"changes": "S25G/S38G/L100M", "log10 Kd (nM) by replicate": "nd nd nd", "mean log10 Kd (nM)": "nd", "control signals": "2/9 (3.71)"}
{"changes": "A57Y/R60K/H98I", "log10 Kd (nM) by replicate": "4.36 4.82 nd", "mean log10 Kd (nM)": "4.59", "control signals": "6/9 (4.97)"}
{"changes": "E32G/V39G/L102M", "log10 Kd (nM) by replicate": "5.69 nd nd", "mean log10 Kd (nM)": "5.69", "control signals": "2/9 (4.09)"}
{"changes": "K36T/W56K", "log10 Kd (nM) by replicate": "0.02 0.36 0.16", "mean log10 Kd (nM)": "0.18", "control signals": "4/9 (5.14)"}
{"changes": "S28C/Q96W", "log10 Kd (nM) by replicate": "nd nd nd", "mean log10 Kd (nM)": "nd", "control signals": "0/9"}
{"changes": "S25E/R60K", "log10 Kd (nM) by replicate": "2.21 2.18 1.86", "mean log10 Kd (nM)": "2.08", "control signals": "1/9 (3.37)"}
{"changes": "V29A/N37A/T59V", "log10 Kd (nM) by replicate": "1.54 1.54 1.69", "mean log10 Kd (nM)": "1.59", "control signals": "6/9 (4.77)"}
{"changes": "S26G/S58L/Q96S", "log10 Kd (nM) by replicate": "nd nd nd", "mean log10 Kd (nM)": "nd", "control signals": "1/9 (4.46)"}
{"changes": "Y31D/R99D", "log10 Kd (nM) by replicate": "0.75 0.86 0.86", "mean log10 Kd (nM)": "0.82", "control signals": "3/9 (4.64)"}
{"changes": "V39Y/Y97A/L102W", "log10 Kd (nM) by replicate": "5.05 nd nd", "mean log10 Kd (nM)": "5.05", "control signals": "2/9 (3.86)"}
{"changes": "K36M/S38R", "log10 Kd (nM) by replicate": "1.60 1.35 1.48", "mean log10 Kd (nM)": "1.48", "control signals": "5/9 (4.27)"}
{"changes": "E32S/R34C/K36F", "log10 Kd (nM) by replicate": "nd 2.99 nd", "mean log10 Kd (nM)": "2.99", "control signals": "1/9 (3.26)"}
{"changes": "S25T/N37Y", "log10 Kd (nM) by replicate": "0.61 0.80 0.70", "mean log10 Kd (nM)": "0.70", "control signals": "3/9 (3.57)"}
{"changes": "E32I/S33E/A40C", "log10 Kd (nM) by replicate": "nd nd 3.87", "mean log10 Kd (nM)": "3.87", "control signals": "1/9 (3.80)"}

Top 3 of the variants detected in all replicates, tightest first:

{"changes": "K36T/W56K", "log10 Kd (nM) by replicate": "0.02 0.36 0.16", "mean log10 Kd (nM)": "0.18", "control signals": "4/9 (5.14)"}
{"changes": "R34E", "log10 Kd (nM) by replicate": "0.27 0.48 0.30", "mean log10 Kd (nM)": "0.35", "control signals": "4/9 (4.42)"}
{"changes": "L30D/Q95M/P101L", "log10 Kd (nM) by replicate": "0.39 0.66 0.52", "mean log10 Kd (nM)": "0.52", "control signals": "1/9 (3.90)"}